Results taken from publication PMC5598323 (Toxicology Reports, 2015).

Sequences of proteins named here, by UniProt entry; tags and fusion partners are left off.
UniProt P11712, whole entry: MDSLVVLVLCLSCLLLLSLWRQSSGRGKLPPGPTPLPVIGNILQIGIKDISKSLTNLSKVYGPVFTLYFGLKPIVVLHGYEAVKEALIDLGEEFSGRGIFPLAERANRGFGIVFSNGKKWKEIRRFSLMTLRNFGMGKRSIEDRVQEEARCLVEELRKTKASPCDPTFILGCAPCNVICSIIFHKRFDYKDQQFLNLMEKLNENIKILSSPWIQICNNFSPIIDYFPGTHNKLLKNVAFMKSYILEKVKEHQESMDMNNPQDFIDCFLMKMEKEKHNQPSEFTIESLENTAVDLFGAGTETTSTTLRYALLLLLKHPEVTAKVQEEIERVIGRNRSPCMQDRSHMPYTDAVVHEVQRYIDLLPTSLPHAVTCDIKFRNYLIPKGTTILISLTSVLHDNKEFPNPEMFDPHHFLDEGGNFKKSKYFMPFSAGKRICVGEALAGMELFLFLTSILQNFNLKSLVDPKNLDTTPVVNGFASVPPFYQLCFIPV

Target: CYP2C9 (Homo sapiens, UniProt P11712)
Test: CYP2C9 diclofenac 4′-hydroxylation assay in human liver microsomes
Settings: HLM; positive control at 0.3 μM; vs negative solvent control

Substance: Sulphaphenazole [reference compound]
- inhibition of CYP2C9 enzyme activity: 50%
